Where “and” joins values, the source holds several entries; their conditions need not be identical. Equal values may be shown once.
Columns and labels:
[1] = Plasma pharmacokinetics after single and multiple oral dosing (HPLC-MS/MS, non-compartmental); type: in vivo, human; conditions: for AUC / AUC0–t / Cmax / Dose-normalized AUC / Dose-normalized Cmax: geometric mean (CV%); for tmax: median
[2] = Urinary pharmacokinetics after multiple dosing; type: in vivo, human; conditions: arithmetic mean (SD)
Experimental: Blood samples for PK analysis were collected pre-dose and at defined intervals up to 96 h following single dosing, and up to 24 h following multiple dosing. Urine samples were also collected during the 24 h after multiple dosing in order to perform urinary PK assessments. For multiple dosing, the 80 mg bid dosing level was evaluated using combined data from patients in both Part A and Part B, as FGFR amplification status was unlikely to have a significant impact on PK. Concentrations of AZD4547 in human plasma and urine were determined using a validated high-performance liquid chromatography–tandem mass spectrometry method at PRA International (Assen, The Netherlands). PK parameters were analysed by standard non-compartmental methods using WinNonlin software (Pharsight Corporation, Mountain View, CA, USA).

[3] = design: method as in earlier work; conditions: cited from earlier work
[4] = multiple dosing, Part A and Part B, 80 mg bid (N = 10), arithmetic mean (SD)
[5] = multiple dosing, Part A, 40 mg bid (N = 3), arithmetic mean (SD)
[6] = multiple dosing, Part A, 160 mg qd (N = 15), arithmetic mean (SD)
[7] = multiple dosing, steady state, Part A and Part B, 80 mg bid (N = 10)
[8] = multiple dosing, steady state, Part A, 40 mg bid (N = 3)
[9] = multiple dosing, steady state, Part A, 120 mg bid (N = 6)
[10] = multiple dosing, steady state, Part A, 160 mg qd (N = 15)
[11] = single dosing, Part A and Part B, 80 mg bid cohort (N = 10)
[12] = single dosing, Part A, 40 mg bid cohort (N = 3)
[13] = single dosing, Part A, 120 mg bid cohort (N = 6)
[14] = single dosing, Part A, 160 mg qd cohort (N = 15)
[15] = single dosing, across the dosing levels
[16] = Part A and Part B, 80 mg bid (N = 10)

AZD4547
Plasma concentrations compared with single dosing, on average ([1]; after qd dosing): 2.4 fold higher
CV% for AUCss ([1]; multiple dosing): 10.5–61.0%
CV% for Css,max ([1]; multiple dosing): 23.0–65.9%
Steady state reached by ([1]; multiple dosing (bid and qd)): ≤ 8 days
RAC (accumulation ratio; multiple-dose AUCss to single-dose AUC0–12h) [1, 4]: 4.87 (±2.42) and 4.870 (2.421)
Tc (temporal change; ratio of multiple-dose AUCss to single-dose AUC) [1, 4]: 1.914 (0.8593)
RAC (accumulation ratio; multiple-dose AUCss to single-dose AUC0–12h) [1, 5]: 3.34 (±1.98) and 3.336 (1.984)
Tc (temporal change; ratio of multiple-dose AUCss to single-dose AUC) [1, 5]: 1.37 (±1.01) and 1.372 (1.014)
Tc (temporal change; ratio of multiple-dose AUCss to single-dose AUC) ([1]; multiple dosing, Part A, 120 mg bid (N = 6), arithmetic mean (SD)): 1.61 (±1.41) and 1.610 (1.409)
RAC (accumulation ratio; multiple-dose AUCss to single-dose AUC0–24h) [1, 6]: 2.42 (±1.56) and 2.423 (1.555)
Tc (temporal change; ratio of multiple-dose AUCss to single-dose AUC) [1, 6]: 1.37 (±0.88) and 1.372 (0.8796)
Dose-normalized AUCss ([1]; multiple dosing, range across dosing levels): 11.4 to 29.7 ng·h/mL
AUC [1, 7]: 2379 (56.09) h · ng/mL
AUC0–t [1, 7]: 2099 (56.97) h · ng/mL
Cmax [1, 7]: 272.8 (60.13) ng/mL
Dose-normalized AUC [1, 7]: 29.74 (56.09) h · ng/mL
Dose-normalized Cmax [1, 7]: 3.410 (60.13) ng/mL
tmax [1, 7]: 2.950 h
AUC [1, 8]: 456.6 (10.46) h · ng/mL
AUC0–t [1, 8]: 408.3 (11.06) h · ng/mL
Cmax [1, 8]: 67.81 (23.00) ng/mL
Dose-normalized AUC [1, 8]: 11.41 (10.46) h · ng/mL
Dose-normalized Cmax [1, 8]: 1.695 (23.00) ng/mL
tmax [1, 8]: 2.920 h
AUC [1, 9]: 2072 (42.08) h · ng/mL
AUC0–t [1, 9]: 1808 (40.80) h · ng/mL
Cmax [1, 9]: 215.8 (36.43) ng/mL
Dose-normalized AUC [1, 9]: 17.27 (42.08) h · ng/mL
Dose-normalized Cmax [1, 9]: 1.799 (36.43) ng/mL
tmax [1, 9]: 3.930 h
AUC [1, 10]: 4134 (61.04) h · ng/mL
AUC0–t [1, 10]: 4134 (60.87) h · ng/mL
Cmax [1, 10]: 302.9 (65.89) ng/mL
Dose-normalized AUC [1, 10]: 25.84 (61.04) h · ng/mL
Dose-normalized Cmax [1, 10]: 1.893 (65.89) ng/mL
tmax [1, 10]: 3.960 h
Time of peak plasma concentrations post-dose ([1]; single and multiple dosing): 3 to 4 h
Terminal half-life ([1]; single and multiple dosing, biphasic decline): ~ 30 h
t1/2λz ([1]; single dosing, Part A and Part B, 80 mg bid cohort (N = 10), arithmetic mean (SD)): 28.82 (5.198) h
AUC [1, 11]: 1539 (53.28) h · ng/mL
AUC0–t [1, 11]: 1452 (50.71) h · ng/mL
Cmax [1, 11]: 88.41 (81.41) ng/mL
Dose-normalized AUC [1, 11]: 19.24 (53.28) h · ng/mL
Dose-normalized Cmax [1, 11]: 1.105 (81.41) ng/mL
tmax [1, 11]: 3.000 h
t1/2λz ([1]; single dosing, Part A, 40 mg bid cohort (N = 3), arithmetic mean (SD)): 22.42 (7.215) h
AUC0–t [1, 12]: 353.9 (71.52) h · ng/mL
Cmax [1, 12]: 24.30 (54.07) ng/mL
Dose-normalized Cmax [1, 12]: 0.6075 (54.07) ng/mL
tmax [1, 12]: 4.000 h
t1/2λz ([1]; single dosing, Part A, 120 mg bid cohort (N = 6), arithmetic mean (SD)): 33.46 (7.492) h
AUC [1, 13]: 2058 (116.6) h · ng/mL
AUC0–t [1, 13]: 1794 (124.1) h · ng/mL
Cmax [1, 13]: 99.78 (141.5) ng/mL
Dose-normalized AUC [1, 13]: 17.15 (116.6) h · ng/mL
Dose-normalized Cmax [1, 13]: 0.8315 (141.5) ng/mL
tmax [1, 13]: 2.990 h
t1/2λz ([1]; single dosing, Part A, 160 mg qd cohort (N = 15), arithmetic mean (SD)): 27.96 (4.214) h
AUC [1, 14]: 3417 (66.96) h · ng/mL
AUC0–t [1, 14]: 3055 (63.53) h · ng/mL
Cmax [1, 14]: 216.2 (68.30) ng/mL
Dose-normalized AUC [1, 14]: 21.36 (66.96) h · ng/mL
Dose-normalized Cmax [1, 14]: 1.351 (68.30) ng/mL
tmax [1, 14]: 2.930 h
CV% for AUC [1, 15]: 53.3–117%
CV% for Cmax [1, 15]: 54.0–142%
CLR (steady-state renal clearance) [2, 16]: 1.25 (±0.43) L/h and 1.248 (0.4322) L/h
fe (steady-state fraction of dose excreted in urine) [2, 16]: 3.66% and 3.662 (1.248) %
CLR (steady-state renal clearance) ([2]; Part A, 40 mg bid (N = 3)): 3.23 (±0.58) L/h and 3.229 (0.5796) L/h
fe (steady-state fraction of dose excreted in urine) ([2]; Part A, 40 mg bid (N = 3)): 3.92% and 3.921 (0.8283) %
CLR (steady-state renal clearance) ([2]; Part A, 120 mg bid (N = 6)): 2.32 (±0.63) L/h and 2.319 (0.6347) L/h
fe (steady-state fraction of dose excreted in urine) ([2]; Part A, 120 mg bid (N = 6)): 4.13% and 4.133 (1.676) %
CLR (steady-state renal clearance) ([2]; Part A, 160 mg qd (N = 15)): 1.38 (±0.59) L/h and 1.383 (0.5867) L/h
fe (steady-state fraction of dose excreted in urine) ([2]; Part A, 160 mg qd (N = 15)): 3.78% and 3.779 (2.477) %
Treatment-related DLTs observed ([3]; dose range 20–200 mg bid): renal failure, elevated liver enzymes, hyperphosphataemia, and mucositis
Safety profile ([3]; monotherapy, several tumour types): acceptable safety profile
